## Antibody variant affinities, Ab-14 light chain, assay B

Target: peptide PDVDLGDISGINAS, taken from heptad repeat 2 (HR2) of SARS-CoV-2 spike.

Parent scFv Ab-14: VH joined to VL by three GGGGS repeats. Changes lie in the light chain CDRs alone.
VH: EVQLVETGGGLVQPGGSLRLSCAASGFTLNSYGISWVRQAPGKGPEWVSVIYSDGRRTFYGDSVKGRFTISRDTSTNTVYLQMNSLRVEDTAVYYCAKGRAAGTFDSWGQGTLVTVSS
VL: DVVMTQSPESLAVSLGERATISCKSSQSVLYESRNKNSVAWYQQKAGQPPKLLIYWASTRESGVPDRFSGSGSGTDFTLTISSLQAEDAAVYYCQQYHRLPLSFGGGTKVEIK

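The starting antibody came from a phage panning campaign against this peptide. These sequences belong to a second round, designed from the earlier measurements on random variants of the parent. Their group label is 14L_En_Gen (En: ensemble of fine-tuned language models; Gen: genetic algorithm). The scFvs were displayed on barcoded MATa yeast, the peptide on MATalpha yeast. Mating (16 h, 30 °C) was followed by selection of diploids and sequencing of their barcodes. Read counts were normalised to the haploid input and turned into Kd by a linear fit to BCL2-family pairs of known affinity, for each replicate. The assay was run in six technical replicates.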

Variants are written as CDR1, CDR2 and CDR3 of the light chain (limits as in the source). Parent: KSSQSVLYESRNKNSVA, WASTRES, QQYHRLPLS. Affinities are written as log10 Kd with Kd in nM; a lower number is a better binder. A mean of the replicates is given; it leaves out those without a signal. An entry "ND" has no value in the source: the pair was not observed among the diploids in that replicate. This suggests poor binding but is not conclusive. In the paper, a design with two or fewer of six values counts as a poor binder.

CDR-L1	CDR-L2	CDR-L3	replicates, log10 nM	mean, log10 nM	empty controls
HITYGMMVAGRHSSSIA	QAETRAK	QQYDRLPLA	1.03 0.90 0.88 1.83 1.01 0.97	1.10	0/18
MLSEVLHMLGVQKNSIA	DLVLRAN	QQYHRLPLF	ND ND ND ND ND ND	ND	0/18
TLYGLSVSMSKNVNSVA	EMTTREQ	QQYDRLPLV	0.83 0.68 0.54 0.64 0.52 0.38	0.60	0/18
KLTSLTGTEKVRGNNVA	EMETREK	QQYNRLPLA	0.23 0.33 -0.04 -0.03 0.05 0.36	0.15	0/18
MISQLMNMGQFAINSVA	QATIRNN	QQYDRLPLA	ND 2.33 ND 1.73 2.20 2.08	2.09	0/18
KLSMITGHMSTAKQNVA	EMVTREN	QQYNRLPLS	0.67 0.40 0.48 0.28 0.49 0.49	0.47	0/18
KVSEFMRGMMRQKNSIA	DNNTRSN	QQYDRLPLS	1.32 1.41 1.11 1.24 1.70 1.35	1.36	2/18 (2.93)
KLSMITGHMSVSKNNVA	EMATREN	QQYDRLPLS	0.83 0.78 0.32 0.65 0.79 1.00	0.73	1/18 (2.71)
MFSQMTGLGMKASNSVA	QASTRFE	QQYHRLPLI	0.23 0.72 0.52 0.33 0.47 0.18	0.41	2/18 (2.19)
MISQLMNMGQFAINSVA	QASIRNE	QQYDRLPLM	0.42 2.07 1.02 1.35 0.97 1.14	1.16	1/18 (2.93)
QLYEMLYELSGKTHSVA	DNSTRGE	QQYFRLPLE	ND ND ND ND ND 2.72	2.72	1/18 (2.61)
TISGVMQTVSHSKNNVA	EMTTREK	QQYVRLPLA	0.36 -0.22 -0.15 -0.06 0.12 0.01	0.01	0/18
MIHESMGLMSHKQSSIA	DNSTREE	QQYDRLPLS	ND 2.20 3.64 ND ND ND	2.92	1/18 (2.56)
TIGGTLMYGYRNRSNVA	EVSQRLN	QQYDRLPLF	ND ND 1.24 ND 1.94 1.70	1.63	0/18
QISGITGHQSMSKNNVA	EMVTRVN	QQYNRLPLS	0.00 -0.13 -0.12 -0.01 -0.15 -0.21	-0.10	0/18
KLGATLNTLSEKKNNVA	DLVMREN	QQYHRLPLS	0.20 0.47 0.39 0.79 0.95 0.70	0.58	1/18 (1.39)
MVYQAAMMGGVARNSIA	NATMRPD	QQYHRLPLM	0.74 0.41 0.59 0.59 0.35 0.56	0.54	2/18 (2.85)
TISQMSTLFSQSINNVA	EVSTRLN	QQYDRLPLT	0.94 1.01 0.99 0.57 0.65 1.03	0.87	0/18
TLSMVTGHMSVSKNNVA	EMETREE	QQYDRLPLS	1.14 0.75 0.95 0.81 0.84 0.84	0.89	1/18 (2.31)
MMSQVTGQGQRHRNNVA	QTSTREE	QQYDRLPLV	0.68 0.63 0.63 0.53 0.59 0.89	0.66	3/18 (2.57)
MISQLYNMGSFAINSVA	QASQRNA	QQYDRLPLT	1.34 ND 1.69 0.68 2.30 0.81	1.36	0/18
MISQLYNMGQFAINSVA	QASQRNA	QQYDRLPLI	1.04 0.82 1.26 0.89 1.43 1.77	1.20	1/18 (2.31)
IVSQLMLWGKSAKNSIA	EAVTRLN	QQYDRLPLE	3.14 2.60 3.81 3.92 2.19 3.28	3.15	1/18 (3.87)
MISQLMNMGQFAINSVA	QATIRNK	QQYDRLPLM	ND 0.99 ND 1.67 2.44 3.86	2.24	0/18
TLYGLSLSMSKNTNSVA	EMTTRED	QQYDRLPLI	1.38 1.68 1.26 1.25 1.56 1.56	1.45	5/18 (2.89)
KISMLINQTFEVSNNVA	EMVTREK	QQYNRLPLS	0.99 0.83 0.93 0.95 0.70 0.98	0.90	0/18
MISNVMNTLTRQGNNVA	DLQNREK	QQYFRLPLS	0.94 1.20 0.77 1.03 0.78 0.98	0.95	2/18 (2.98)
MISQMYNMGQFAINSVA	QASERNE	QQYDRLPLT	1.66 0.58 2.00 1.19 0.75 ND	1.24	0/18
QIYQAMHTLMQQKNNVA	DVTNRNR	QQYNRLPLS	0.46 0.31 0.20 0.33 0.41 0.49	0.37	2/18 (2.63)
MISQLYNMGQFAINSVA	QASTRNA	QQYDRLPLM	2.21 1.29 ND 1.75 2.41 1.34	1.80	0/18
MLSQMWAIGMKAKNSVA	QASMRFN	QQYDRLPLV	1.20 1.56 1.66 ND 1.38 1.38	1.44	1/18 (1.49)
MISQLFNMGSFAINSVA	QASQRCE	QQYDRLPLI	ND 1.75 2.85 ND 2.42 1.55	2.14	1/18 (1.30)
MLSEVLHMLGVQMNSIA	DLVLRAN	QQYHRLPLM	ND 2.71 ND ND ND ND	2.71	0/18
MISQVMGLNNMYKSSVA	QAETRLN	QQYDHLPLS	1.34 1.99 1.09 1.33 1.32 1.23	1.38	2/18 (2.15)
KITQTMRFEQKISNNIA	EVTLRSK	QQYYRLPLS	1.49 1.36 2.39 2.00 1.71 1.33	1.71	0/18
KLTMVTGTEKVRGNNVA	EMETRES	QQYNRLPLS	0.64 0.55 0.51 0.36 0.65 0.80	0.59	0/18
MISNVMNSLTHLGNNVA	DLQERED	QQYFRLPLS	0.19 -0.03 0.45 0.60 -0.14 0.31	0.23	0/18

Top 3 of the variants detected in all replicates, tightest first:

| CDR-L1 | CDR-L2 | CDR-L3 | replicates, log10 nM | mean, log10 nM | empty controls |
|---|---|---|---|---|---|
| QISGITGHQSMSKNNVA | EMVTRVN | QQYNRLPLS | 0.00 -0.13 -0.12 -0.01 -0.15 -0.21 | -0.10 | 0/18 |
| TISGVMQTVSHSKNNVA | EMTTREK | QQYVRLPLA | 0.36 -0.22 -0.15 -0.06 0.12 0.01 | 0.01 | 0/18 |
| KLTSLTGTEKVRGNNVA | EMETREK | QQYNRLPLA | 0.23 0.33 -0.04 -0.03 0.05 0.36 | 0.15 | 0/18 |

The parent sequence was in this pool as ten entries: three were never detected, three once, and four in most replicates, with averages from 0.34 to 2.37. The range of this assay differs from that of the first round, and the authors advise against merging the two. Three control strains display no target. For all light chain designs, 4% of the pairings with them gave a signal, with a median of 2.64 and one signal in twenty below 1.59, so weak values seen in few replicates may be background. For each scFv, signals with the empty controls are counted beside the result, with their mean in brackets.

Source: Li et al. 2023 (doi:10.1038/s41467-023-39022-2), MIT Lincoln Laboratory and A-Alpha Bio; data file from the FLAb repository.